Reference: patent US20070259805A1 (Daiichi Sankyo, published 2007)

Legend:
Experiment in all cases: GST pull-down on glutathione Sepharose 4B; biotin-labelled in vitro translated protein detected with streptavidin-HRP on a blot
[1] = target: T1, ELK4 (ETS-domain protein Elk-4), synthesized in vitro with Transcend Biotin-Lysyl-tRNA from pcDNA3.1/V5-His (human, UniProt P28324 1-372, biotinylated lysines incorporated by Transcend Biotin-Lysyl-tRNA; positions not stated)
T1 construct: Made with the TNT quick coupled transcription/translation system; The vector is printed as 'pcDNA3.1N5.His'
T1 sequence: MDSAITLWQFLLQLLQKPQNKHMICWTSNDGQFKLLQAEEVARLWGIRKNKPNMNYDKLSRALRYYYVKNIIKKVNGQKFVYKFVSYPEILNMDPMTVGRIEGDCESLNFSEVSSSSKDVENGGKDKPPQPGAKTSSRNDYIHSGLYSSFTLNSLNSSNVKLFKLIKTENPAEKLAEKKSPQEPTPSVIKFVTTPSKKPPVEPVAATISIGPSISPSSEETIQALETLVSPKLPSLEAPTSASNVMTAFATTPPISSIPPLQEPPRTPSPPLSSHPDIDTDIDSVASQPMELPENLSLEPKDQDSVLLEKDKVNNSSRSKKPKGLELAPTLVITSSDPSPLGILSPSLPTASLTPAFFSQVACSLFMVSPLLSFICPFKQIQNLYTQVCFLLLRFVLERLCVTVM
Description: (§1) The resin was subjected to centrifugation at 10,000 rpm at 4° C. for 1 minute to recover it, and washed with 0.5 ml of the binding buffer for 4 times. Then, 20 μl of 2×SDS-PAGE sample buffer containing 10% β-mercaptoethanol was added thereto and boiled for 3 minutes. After that, the resin was precipitated by centrifugation, and resultant supernatant was loaded onto 5-20% polyacrylamide gel to separate proteins contained in the supernatant. The proteins were transferred from polyacrylamide gel to PVDF membrane to detect co-precipitated protein by using horseradish peroxidase conjugated streptavidin (streptavidin-HRP) and ECL Western Blotting Detection, System (Amersham Biosciences). Meanwhile, in order to determine the position of HLF, ELK4 or CLOCK separated in polyacrylamide gel, and to confirm the expression amounts of these three kinds of proteins to be enough for carrying out a binding assay, each of the TNT reaction solutions was loaded onto polyacrylamide gel to detect each expressed protein in the same manner as described above.

[2] = target: T2, CLOCK (circadian locomoter output cycles kaput protein), synthesized in vitro with Transcend … (human, UniProt O15516 1-846, biotinylated lysines incorporated by Transcend Biotin-Lysyl-tRNA; positions not stated)
T2 construct: Made with the TNT quick coupled transcription/translation system from a pcDNA3.1/Myc.His plasmid; also called KIAA 0334
T2 sequence: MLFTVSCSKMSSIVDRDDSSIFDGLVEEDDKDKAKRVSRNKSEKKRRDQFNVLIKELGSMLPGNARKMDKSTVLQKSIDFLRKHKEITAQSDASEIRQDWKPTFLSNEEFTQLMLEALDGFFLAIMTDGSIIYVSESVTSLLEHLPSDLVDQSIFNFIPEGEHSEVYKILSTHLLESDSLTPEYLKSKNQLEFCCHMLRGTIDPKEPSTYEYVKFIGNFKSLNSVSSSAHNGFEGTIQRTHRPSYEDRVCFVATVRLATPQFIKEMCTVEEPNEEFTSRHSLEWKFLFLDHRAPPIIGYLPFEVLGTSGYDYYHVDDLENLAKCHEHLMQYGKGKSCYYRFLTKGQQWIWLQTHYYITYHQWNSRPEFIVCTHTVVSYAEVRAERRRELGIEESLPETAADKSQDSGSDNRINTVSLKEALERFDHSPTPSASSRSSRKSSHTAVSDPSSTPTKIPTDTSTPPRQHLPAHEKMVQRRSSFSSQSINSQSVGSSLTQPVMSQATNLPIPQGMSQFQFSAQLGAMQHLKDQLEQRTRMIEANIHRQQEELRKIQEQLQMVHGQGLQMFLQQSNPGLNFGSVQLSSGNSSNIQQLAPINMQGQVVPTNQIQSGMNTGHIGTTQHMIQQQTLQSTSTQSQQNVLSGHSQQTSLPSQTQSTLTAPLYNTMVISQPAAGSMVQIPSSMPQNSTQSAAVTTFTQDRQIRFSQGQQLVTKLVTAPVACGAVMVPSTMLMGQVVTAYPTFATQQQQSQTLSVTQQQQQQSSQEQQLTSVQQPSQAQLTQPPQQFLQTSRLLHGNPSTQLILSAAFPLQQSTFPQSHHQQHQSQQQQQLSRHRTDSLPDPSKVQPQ
Description: as §1

[3] = target: T3, HLF (hepatic leukemia factor), synthesized in vitro with Transcend Biotin-Lysyl-tRNA from pcDNA3.1/His (human, UniProt Q16534 1-295, biotinylated lysines incorporated by Transcend Biotin-Lysyl-tRNA; positions not stated)
T3 construct: Made with the TNT quick coupled transcription/translation system from a pcDNA3.1/His plasmid; also called BLF
T3 sequence: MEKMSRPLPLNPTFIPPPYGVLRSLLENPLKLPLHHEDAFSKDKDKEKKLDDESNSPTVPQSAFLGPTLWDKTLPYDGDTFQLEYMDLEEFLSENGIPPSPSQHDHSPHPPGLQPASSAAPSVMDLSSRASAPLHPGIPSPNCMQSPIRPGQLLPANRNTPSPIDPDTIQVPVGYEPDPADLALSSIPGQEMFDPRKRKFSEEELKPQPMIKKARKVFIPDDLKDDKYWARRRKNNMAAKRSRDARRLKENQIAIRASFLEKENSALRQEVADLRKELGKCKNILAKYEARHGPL
Description: as §1

binding result [1]: no binding
binding result [2]: no binding
binding result [3]: no binding
B1: GST (glutathione S-transferase), purified, negative control (other, UniProt P08515 1-218, looked up)
chain: MSPILGYWKIKGLVQPTRLLLEYLEEKYEEHLYERDEGDKWRNKKFELGLEFPNLPYYIDGDVKLTQSMAIIRYIADKHNMLGGCPKERAEISMLEGAVLDIRYGVSRIAYSKDFETLKVDFLSKLPEMLKMFEDRLCHKTYLNGDHVTHPDFMLYDALDVVLYMDPMCLDAFPKLVCFKKRIEAIPQIDKYLKSSKYIAWPLQGWQATFGGGDHPPK
notes: Negative control of the pull-down; Any vector-encoded C-terminal residues are not described
